Consider two molecules from ChEMBL document CHEMBL1781915, “Potential virtual lead identification in the discovery of renin inhibitors: application of ligand and structure-based pharmacophore modeling approaches” (Eur J Med Chem, 2011).

Sequences of proteins named here, by UniProt entry; tags and fusion partners are left off. A change or cut given only in a name is not applied to a line headed by its entry.
UniProt P00797: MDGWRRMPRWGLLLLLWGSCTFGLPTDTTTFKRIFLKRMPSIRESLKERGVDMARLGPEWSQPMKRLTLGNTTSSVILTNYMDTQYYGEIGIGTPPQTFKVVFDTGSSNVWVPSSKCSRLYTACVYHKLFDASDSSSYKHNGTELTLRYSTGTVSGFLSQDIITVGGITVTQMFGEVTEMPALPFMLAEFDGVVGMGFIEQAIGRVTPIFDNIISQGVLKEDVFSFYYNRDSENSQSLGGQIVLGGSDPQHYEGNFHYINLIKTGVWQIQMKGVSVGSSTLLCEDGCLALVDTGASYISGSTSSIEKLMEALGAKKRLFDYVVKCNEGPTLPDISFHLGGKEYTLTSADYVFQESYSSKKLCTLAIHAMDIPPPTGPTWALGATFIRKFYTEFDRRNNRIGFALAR

The target in this assay is Renin (Homo sapiens, UniProt P00797).

Structures are written as SMILES.

By IC50 is commonly meant the concentration needed to halve the response being measured. The low end stands for greater potency in that assay, the high end for weaker potency in that assay. `CNCC(CC1CCCCC1)NC(=O)N1CCCC(C(O)(CCCCOC)c2cccc(Cl)c2)C1` (configuration not stated) showed an IC50 of 0.47 nM.
For the molecule `CCCCNC(=O)C(C)CC(O)C(N)CC(C)COC(=O)c1cn(Cc2ccccc2)c2ccccc12` (configuration not stated), the IC50 came to 3 nM.
